Results: ChEMBL document CHEMBL1138502, “Discovery and biological evaluation of novel cyanoguanidine P2X(7) antagonists with analgesic activity in a rat model of neuropathic pain” (J Med Chem, 2009)

Target: T1, P2X purinoceptor 7 (Rattus norvegicus, UniProt Q64663)
T1 sequence (Q64663 whole entry): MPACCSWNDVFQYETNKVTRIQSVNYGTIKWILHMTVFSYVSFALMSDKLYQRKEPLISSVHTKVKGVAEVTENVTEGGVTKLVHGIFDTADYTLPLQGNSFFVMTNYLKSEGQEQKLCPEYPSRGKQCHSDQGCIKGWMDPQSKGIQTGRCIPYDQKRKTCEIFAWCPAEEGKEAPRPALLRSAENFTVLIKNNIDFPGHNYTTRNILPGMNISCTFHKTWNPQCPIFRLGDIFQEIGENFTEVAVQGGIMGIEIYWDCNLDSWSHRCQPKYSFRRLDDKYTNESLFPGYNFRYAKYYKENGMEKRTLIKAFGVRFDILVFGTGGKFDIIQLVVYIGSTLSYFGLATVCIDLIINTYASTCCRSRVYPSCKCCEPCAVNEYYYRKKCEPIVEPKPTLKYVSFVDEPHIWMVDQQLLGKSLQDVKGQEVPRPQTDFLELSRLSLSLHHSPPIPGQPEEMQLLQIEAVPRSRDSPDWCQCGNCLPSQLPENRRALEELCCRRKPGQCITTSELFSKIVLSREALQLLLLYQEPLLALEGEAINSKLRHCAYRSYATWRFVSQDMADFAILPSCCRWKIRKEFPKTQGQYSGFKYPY
Test: Antagonist activity at rat cloned P2X7 receptor expressed in HEK293 cells assessed as inhibition of calcium flux by FLIPR assay
Format: functional, cell-based
In short: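 Calcium influx read on a fluorometric imaging plate reader with Fluo-4 as the calcium-sensing dye. The P2X7 agonist was benzoylbenzoic ATP (BzATP). pIC50 values are the mean of two experiments unless otherwise indicated; some values are the mean of more than two experiments, with standard deviation shown.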

COc1ccc(CC(=O)NC(N/C(=N/C#N)Nc2cccc3ncccc23)C(C)(C)C)cc1OC (stereo unspecified)
IC50: 20 nM
